Target: E-selectin (Homo sapiens, UniProt P16581)
Experiment: E-selectin competitive binding assay (inhibition of sLe^a binding to immobilized E-selectin/Ig chimera)
Conditions: read-out: IC50 (μM), E-Selectin Antagonist Activity, biotinylated sLe^a polyacrylamide with streptavidin/HRP, TMB, 450 nm, tested form: Na salt
Method: The inhibition assay to screen for and characterize glycomimetic antagonists of E-selectin is a competitive binding assay, which allows the determination of IC50 values. E-selectin/Ig chimera was immobilized in 96 well microtiter plates by incubation at 37° C. for 2 hours. To reduce nonspecific binding, bovine serum albumin was added to each well and incubated at room temperature for 2 hours. The plate was washed and serial dilutions of the test compounds were added to the wells in the presence of conjugates of biotinylated, sLe^a polyacrylamide with streptavidin/horseradish peroxidase and incubated for 2 hours at room temperature.
To determine the amount of sLe^a bound to immobilized E-selectin after washing, the peroxidase substrate, 3,3′,5,5′ tetramethylbenzidine (TMB) was added. After 3 minutes, the enzyme reaction was stopped by the addition of H3PO4, and the absorbance of light at a wavelength of 450 nm was determined.
In addition to reporting the absolute IC50 value as measured above, relative IC50 values (rIC50) are determined by a ratio of the IC50 measured for the test compound to that of an internal control (reference) stated for each assay.

Protein sequences, listed by entry. Tags and fused reporters are not part of them. Residues count along the entry.
UniProt P16581, 22-175 limits assumed: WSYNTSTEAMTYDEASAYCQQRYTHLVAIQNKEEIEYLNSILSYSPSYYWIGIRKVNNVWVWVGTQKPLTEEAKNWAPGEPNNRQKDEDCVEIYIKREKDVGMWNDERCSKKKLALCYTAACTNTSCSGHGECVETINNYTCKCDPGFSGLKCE

Work on CCC1CC(C(=O)NCCNC(=O)CCOCCOCCOCCOCCOCCOCCOCCOCCOCCOCCOCCOC)CC(OC2OC(CO)C(O)C(OC(CC3CCCCC3)C(=O)O)C2NC(C)=O)C1OC1OC(C)C(O)C(O)C1O (stereo not shown) yielded an IC50 of less than 4 µM.

Reference: patent US20170296566A9, “METHODS AND COMPOSITIONS FOR TREATING AND/OR PREVENTING MUCOSITIS” (GLYCOMIMETICS, INC., priority 2013, published 2017)
